Measurements published in US6358947B1 (American Home Products Corporation, priority 1999, dated 2002).

Chains of the proteins cited; added tags and fusions are not shown. Lines headed by an entry give the natural chain unless they say otherwise; changes in a name come on top.
UniProt P10275: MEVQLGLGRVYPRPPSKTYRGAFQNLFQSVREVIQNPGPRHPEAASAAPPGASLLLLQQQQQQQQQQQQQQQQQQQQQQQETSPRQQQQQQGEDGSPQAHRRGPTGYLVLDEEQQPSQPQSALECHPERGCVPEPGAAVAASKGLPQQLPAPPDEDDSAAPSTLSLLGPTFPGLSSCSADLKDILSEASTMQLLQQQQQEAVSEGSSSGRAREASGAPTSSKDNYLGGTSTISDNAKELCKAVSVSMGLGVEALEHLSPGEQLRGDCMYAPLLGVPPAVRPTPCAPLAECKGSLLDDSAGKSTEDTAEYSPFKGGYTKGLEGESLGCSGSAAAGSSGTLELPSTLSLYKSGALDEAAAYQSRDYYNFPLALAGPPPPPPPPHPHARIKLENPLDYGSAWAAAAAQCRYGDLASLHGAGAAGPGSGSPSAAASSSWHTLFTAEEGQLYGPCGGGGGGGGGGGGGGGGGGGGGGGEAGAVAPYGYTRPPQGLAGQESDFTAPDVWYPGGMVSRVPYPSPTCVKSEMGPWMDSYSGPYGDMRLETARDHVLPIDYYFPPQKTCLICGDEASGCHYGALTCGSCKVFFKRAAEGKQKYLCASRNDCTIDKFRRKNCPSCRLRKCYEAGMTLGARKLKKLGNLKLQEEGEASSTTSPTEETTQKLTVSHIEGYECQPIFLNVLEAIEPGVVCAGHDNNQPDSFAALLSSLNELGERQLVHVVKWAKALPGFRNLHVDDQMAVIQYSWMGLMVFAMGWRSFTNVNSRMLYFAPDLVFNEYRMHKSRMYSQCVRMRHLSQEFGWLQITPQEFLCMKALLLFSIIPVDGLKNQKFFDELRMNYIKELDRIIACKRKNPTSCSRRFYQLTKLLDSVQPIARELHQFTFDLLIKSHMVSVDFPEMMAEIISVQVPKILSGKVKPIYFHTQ

Columns and labels:
[1] = biological target: T1, hGR (Homo sapiens, UniProt P04150); test: Cotransfection assay, GR antagonist; details: read-out: GR Potency Antag
T1 sequence (P04150 1-777): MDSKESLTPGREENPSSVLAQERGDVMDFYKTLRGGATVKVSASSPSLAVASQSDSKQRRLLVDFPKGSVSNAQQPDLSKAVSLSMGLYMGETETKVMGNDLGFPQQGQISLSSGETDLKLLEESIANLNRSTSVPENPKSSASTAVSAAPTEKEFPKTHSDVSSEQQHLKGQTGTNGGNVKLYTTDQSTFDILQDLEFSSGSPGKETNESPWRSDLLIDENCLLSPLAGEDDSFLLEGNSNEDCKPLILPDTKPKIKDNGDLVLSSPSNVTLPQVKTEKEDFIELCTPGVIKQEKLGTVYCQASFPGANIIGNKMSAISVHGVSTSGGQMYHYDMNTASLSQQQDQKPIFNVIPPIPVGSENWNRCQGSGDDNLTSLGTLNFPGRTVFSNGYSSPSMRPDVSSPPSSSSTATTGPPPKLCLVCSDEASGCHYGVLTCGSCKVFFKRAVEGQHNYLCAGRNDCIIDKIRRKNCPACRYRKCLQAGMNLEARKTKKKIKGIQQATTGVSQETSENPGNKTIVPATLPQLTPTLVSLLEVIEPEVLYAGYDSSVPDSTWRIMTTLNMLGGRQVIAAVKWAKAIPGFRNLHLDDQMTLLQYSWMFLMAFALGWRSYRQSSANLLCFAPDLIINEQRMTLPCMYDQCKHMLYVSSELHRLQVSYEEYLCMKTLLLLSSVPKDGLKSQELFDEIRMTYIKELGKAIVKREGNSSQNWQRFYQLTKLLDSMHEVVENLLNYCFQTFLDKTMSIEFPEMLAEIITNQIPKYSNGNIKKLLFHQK

[2] = biological target: T2, human PR (Homo sapiens, UniProt P06401); test: Cotransfection assay, PR agonist, CV-1 cells; details: read-out: PR Potency Agon; Table 2
T2 sequence (P06401 1-933): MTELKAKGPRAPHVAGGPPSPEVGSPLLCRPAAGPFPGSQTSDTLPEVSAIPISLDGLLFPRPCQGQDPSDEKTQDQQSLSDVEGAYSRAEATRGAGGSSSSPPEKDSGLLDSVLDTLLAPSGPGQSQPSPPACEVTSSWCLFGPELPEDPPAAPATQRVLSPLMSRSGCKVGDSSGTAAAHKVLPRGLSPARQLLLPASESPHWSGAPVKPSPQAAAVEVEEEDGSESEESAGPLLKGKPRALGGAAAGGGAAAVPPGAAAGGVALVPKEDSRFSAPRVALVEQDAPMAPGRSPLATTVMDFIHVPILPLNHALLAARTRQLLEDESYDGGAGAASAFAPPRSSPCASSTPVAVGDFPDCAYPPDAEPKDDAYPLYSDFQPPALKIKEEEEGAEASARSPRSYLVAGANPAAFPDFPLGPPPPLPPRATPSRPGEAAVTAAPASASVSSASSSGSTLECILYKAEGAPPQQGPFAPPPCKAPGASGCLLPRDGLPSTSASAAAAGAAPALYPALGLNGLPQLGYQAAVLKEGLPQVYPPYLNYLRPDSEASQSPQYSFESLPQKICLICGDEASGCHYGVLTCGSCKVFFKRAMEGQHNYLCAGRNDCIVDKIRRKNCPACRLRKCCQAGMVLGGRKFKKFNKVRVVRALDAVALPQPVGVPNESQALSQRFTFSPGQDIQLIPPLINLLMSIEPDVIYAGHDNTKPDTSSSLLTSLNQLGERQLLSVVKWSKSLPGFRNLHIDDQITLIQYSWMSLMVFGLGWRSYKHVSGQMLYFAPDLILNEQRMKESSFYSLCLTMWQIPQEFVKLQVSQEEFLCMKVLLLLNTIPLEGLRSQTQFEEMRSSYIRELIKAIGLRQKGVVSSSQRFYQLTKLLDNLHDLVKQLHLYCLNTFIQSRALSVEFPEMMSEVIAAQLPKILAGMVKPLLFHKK

[3] = biological target: T3, hAR (Homo sapiens, UniProt P10275); test: Cotransfection assay, AR antagonist; details: read-out: AR Potency Antag
[4] = biological target: T2, human PR; test: Cotransfection assay, PR antagonist, CV-1 cells; details: read-out: PR Potency Antag; Table 2
[5] = biological target: T4, hMR (Homo sapiens, UniProt P08235); test: Cotransfection assay, MR antagonist; details: read-out: MR Potency Antag
T4 sequence (P08235 1-984): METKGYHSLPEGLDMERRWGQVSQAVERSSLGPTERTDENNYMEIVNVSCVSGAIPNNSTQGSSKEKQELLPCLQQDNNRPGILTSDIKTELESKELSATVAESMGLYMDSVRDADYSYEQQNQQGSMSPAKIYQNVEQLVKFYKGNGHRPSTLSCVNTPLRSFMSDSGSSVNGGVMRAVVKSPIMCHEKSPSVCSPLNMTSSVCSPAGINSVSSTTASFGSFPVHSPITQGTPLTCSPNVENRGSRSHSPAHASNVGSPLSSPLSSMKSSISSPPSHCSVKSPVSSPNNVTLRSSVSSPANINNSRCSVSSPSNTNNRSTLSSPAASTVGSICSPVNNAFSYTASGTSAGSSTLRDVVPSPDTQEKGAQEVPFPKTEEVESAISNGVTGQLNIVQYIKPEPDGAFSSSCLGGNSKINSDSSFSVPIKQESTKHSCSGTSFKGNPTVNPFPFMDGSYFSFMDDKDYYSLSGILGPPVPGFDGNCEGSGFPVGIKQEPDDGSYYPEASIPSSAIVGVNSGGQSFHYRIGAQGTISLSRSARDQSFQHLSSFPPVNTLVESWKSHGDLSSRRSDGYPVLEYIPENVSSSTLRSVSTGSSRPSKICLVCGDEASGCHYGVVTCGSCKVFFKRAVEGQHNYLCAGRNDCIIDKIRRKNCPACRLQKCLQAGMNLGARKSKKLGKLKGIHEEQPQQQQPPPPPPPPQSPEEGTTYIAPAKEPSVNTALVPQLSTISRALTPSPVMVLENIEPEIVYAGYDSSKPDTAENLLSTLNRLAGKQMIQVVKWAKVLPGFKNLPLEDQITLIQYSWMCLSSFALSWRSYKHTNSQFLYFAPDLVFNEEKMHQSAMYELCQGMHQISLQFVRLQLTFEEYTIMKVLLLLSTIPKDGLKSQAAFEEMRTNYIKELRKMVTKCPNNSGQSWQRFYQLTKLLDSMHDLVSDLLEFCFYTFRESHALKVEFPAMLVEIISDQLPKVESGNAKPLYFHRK

[6] = biological target: T3, hAR; test: Cotransfection assay, AR agonist; details: read-out: AR Potency Agon

CCCCN(C)C(=O)CCCCCCCCCC[C@@H]1Cc2cc(O)ccc2[C@H]2CC[C@]3(C)[C@@H](O)CC[C@H]3[C@H]12 [ICI 164, reference compound]
> 10 µM: IC50 [1] | EC50 [2] | IC50 [3] | IC50 [4] | IC50 [5] | EC50 [6]
